# Experimental data from ChEMBL document CHEMBL3120159, “Discovery of 2-pyridone derivatives as potent HIV-1 NNRTIs using molecular hybridization based on crystallographic overlays” (Bioorg Med Chem, 2014).
# Target: Human immunodeficiency virus type 1 reverse transcriptase (Human immunodeficiency virus 1, UniProt Q72547)
# Experiment: Inhibition of HIV1 reverse transcriptase assessed as inhibition of biotinylated dUTP incorporation after 1 hr by ELISA
smiles,measurement,value
Cc1cc(C#N)cc(C)c1Oc1nc(Nc2ccc(C#N)cc2)nc(N)c1Br [ETRAVIRINE],IC50,180 nM
